Assay results: the supplement of paper PMC4858399

Columns and labels:
Settings in all cases: exposure time 48 h
[1] = tested on: Caenorhabditis elegans N2; test: AC50 for larval growth inhibition (Hill fit); higher = less potent
Method in brief: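 Synchronised C. elegans N2 L1 larvae (50 per well, 96-well plates) were grown for 48 h at 20°C in K-medium with killed OP50, 1% DMSO and 0.5–200 µM chemical. The COPAS Biosort measured each worm's size as extinction, which was log-transformed and averaged per well. AC50 came from a constrained Hill fit by weighted genetic-algorithm regression on wells with at least 10 worms. Out-of-range values are censored.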

[2] = tested on: Caenorhabditis elegans N2; test: lowest effective concentration for larval growth inhibition (size below effect threshold); higher = less potent
Method in brief: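 C. elegans N2 L1 larvae (50 per 96-well) were grown 48 h at 20°C in K-medium with killed bacteria, 1% DMSO and 0.5, 1, 5, 10, 50, 100 or 200 µM chemical. The Biosort measured per-worm extinction as size, and these were log-transformed into well means. The lowest effective concentration is the first dose where the plate-adjusted mean size drops under the 5.665 threshold and stays under it at higher doses.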

[3] = tested on: Caenorhabditis elegans N2; test: mean nematode size ln(EXT) after 48 h, plate-adjusted (DMSO control set to 6) (ln(EXT), control-adjusted); higher = larger nematodes / less growth inhibition
Method in brief: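 Synchronised C. elegans N2 L1 larvae (50 per well, 4–6 wells per treatment) were grown for 48 h at 20°C in K-medium with killed OP50, 1% DMSO and 0.5–200 µM chemical. The Biosort measured each worm's extinction, and debris was removed by a growth model. Values were natural-logged and averaged per well. Mean size was then plate-adjusted by subtracting the vehicle control mean and adding 6.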

**Q.** What does the source list for `CCOc1nc(C(Cl)(Cl)Cl)ns1` [Etridiazole]?
**A.** AC50 for larval growth inhibition [1]: > 200 µM; lowest effective concentration [2]: 50 µM; mean nematode size ln(EXT) (ln) ([3]; 0.5 µM): 5.72; mean nematode size ln(EXT) (ln) ([3]; 1 µM): 5.81; mean nematode size ln(EXT) (ln) ([3]; 5 µM): 5.8; mean nematode size ln(EXT) (ln) ([3]; 10 µM): 5.83; mean nematode size ln(EXT) (ln) ([3]; 50 µM): 5.57; mean nematode size ln(EXT) (ln) ([3]; 100 µM): 5.59; mean nematode size ln(EXT) (ln) ([3]; 200 µM): 4.58
